Experimental data from patent US5372813A (priority 1992, dated 1994).

Tested on: 5-HT reuptake complex
Test: in vivo blocking of 5-125I-6-NQP brain binding by co-injected drugs
Set-up: species or system rat
Conditions: in words; for radioactivity in prefrontal cortex, olfactory tubercles, hippocampus and hypothalamus / radioactivity in the cerebellum: co-injection 2 mg/kg, 6 h
[1] = co-injection 2 mg/kg paroxetine

| Compound | radioactivity in prefrontal cortex, olfactory tubercles, hippocampus and hypothalamus | radioactivity in the cerebellum | blocked brain tissue radioactivity concentrations and unblocked cerebellum (co-injection 2 mg/kg paroxetine, 4 h post injection) | cerebellar radioactivity [1] | prefrontal cortex and hypothalamus radioactivity [1] | total binding of 5-125I-6-NQP in all rat brain regions measured [1] | radioactivity concentrations in brain regions (co-injection, LSD 0.5 mg/kg, GBR-12909 and DMI 2 mg/kg) |
| --- | --- | --- | --- | --- | --- | --- | --- |
| CNCCC(Oc1ccc(C(F)(F)F)cc1)c1ccccc1 (racemic) [fluoxetine, (±)-N--Methyl-3-Phenyl-3-[(ααα-trifluoro-p-tolyl)oxy]propylamine] | greatly reduced radioactivity | only a small change in radioactivity in the cerebellum |  |  |  |  |  |
| Fc1ccc([C@@H]2CCNC[C@H]2COc2ccc3c(c2)OCO3)cc1 [paroxetine] | greatly reduced radioactivity | only a small change in radioactivity in the cerebellum | approximately equal at 4 h post injection | decreased only slightly | greatly diminished | decrease in total binding in all rat brain regions measured |  |
| CNCCCN1c2ccccc2CCc2ccccc21 [DMI] |  |  |  |  |  |  | little effect on radioactivity concentrations in these regions |
